Binding of CDR-mutated scFvs to a peptide of the spike HR2 region

Data: MIT Lincoln Laboratory AlphaSeq set, Li et al. 2023, doi:10.1038/s41467-023-39022-2, as distributed in FLAb.

Binding partner: SARS-CoV-2 spike HR2 peptide, sequence PDVDLGDISGINAS.

Ab-14 is the parent antibody, in scFv form: VH, then a (GGGGS)3 linker, then VL. The heavy chain is unchanged in all variants.
VH: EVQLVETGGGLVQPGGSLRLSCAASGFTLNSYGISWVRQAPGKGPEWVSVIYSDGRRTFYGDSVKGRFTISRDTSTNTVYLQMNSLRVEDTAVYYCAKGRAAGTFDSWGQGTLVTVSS
VL: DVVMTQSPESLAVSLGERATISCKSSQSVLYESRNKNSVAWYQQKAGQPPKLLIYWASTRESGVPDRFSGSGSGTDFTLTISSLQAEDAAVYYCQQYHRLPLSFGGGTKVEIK

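The starting antibody came from a phage panning campaign against this peptide. This is the validation round: designs drawn from the data on random variants, tested in the same kind of assay. Their group label is 14L_En_Gibbs (En: ensemble of fine-tuned language models; Gibbs: Gibbs sampling). AlphaSeq pools MATa yeast showing the antibodies with MATalpha yeast showing the peptide. Pairs that bind mate more often; barcode pairs of the diploids are counted by sequencing. The ratio of observed to expected reads was calibrated, replicate by replicate, on BCL2-family standards whose Kd was known from biolayer interferometry. The assay was run in six technical replicates.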

Each variant is given by its three light chain CDRs, as the data file delimits them; those of the parent are KSSQSVLYESRNKNSVA, WASTRES, QQYHRLPLS.
Values are log10 of the apparent Kd in nM; lower means stronger binding.
Replicates are averaged; those with no signal do not enter the mean.
Where no diploid with the target was found in that replicate, the entry reads "n.d.": below detection, most likely a poor binder, though not proof of it.

CDR-L1,CDR-L2,CDR-L3,"replicates, log10 nM","mean, log10 nM",empty controls
RMSVFMLTDENVWYSIA,NSAAVRI,QQYQRLPLS,n.d. n.d. n.d. n.d. n.d. n.d.,n.d.,0/18
TLMHHQDRYDNWKKSIA,EAIIRES,QQYSRLPLA,1.84 0.97 1.27 1.25 1.05 1.68,1.34,2/18 (2.78)
SLTSHEEEIEGAEASVA,NAMMLES,QQYHRLPLM,0.68 0.32 0.59 0.41 0.81 0.45,0.54,1/18 (2.34)
KIQNMAWSGSMKWNAVA,ASEHKVG,QQYGRLPFT,1.70 1.54 1.59 2.00 1.87 2.95,1.94,1/18 (3.36)
QMSANFLWPGNGRQSVA,EISTAME,QQYSHLPLS,1.80 2.07 1.71 2.04 1.56 2.11,1.88,1/18 (2.91)
KLVGDMQSDKNPSENIA,EMSSVEQ,QQYARLPLE,n.d. n.d. 1.33 n.d. 3.36 2.40,2.36,1/18 (2.60)
KIRNDFYEGIQNASNVA,GHHESID,QQYSMLPLI,n.d. 3.30 3.06 n.d. n.d. n.d.,3.18,0/18
KLANEMYQGSLVQANVA,EAKELWE,QQYGHLPLA,0.82 0.76 0.46 1.05 0.69 0.72,0.75,2/18 (3.10)
KLSWKSLYGETRWMAIA,NTKVRNA,QQYFRLPLQ,1.63 1.14 1.58 n.d. 1.60 0.99,1.39,1/18 (2.33)
ALELEEMQMMKDINSIA,NTEYKTR,QQYVRLPFS,0.61 0.59 0.20 0.37 0.58 0.84,0.53,4/18 (3.29)
TLHANIQYGGIMWSSIA,GNVQRAN,QQYTRLPLS,1.72 1.30 1.33 1.53 1.47 1.08,1.40,1/18 (1.76)
KLRHHNLDFYEVENSIA,GESMRAH,QQYYRLPLN,n.d. n.d. 0.98 n.d. n.d. n.d.,0.98,0/18
RLTNEFFKVSEHKNSVA,HADQRCM,QQYFTLPLI,1.07 1.04 0.72 1.26 0.87 1.04,1.00,0/18
KLPMKELEMSQNTNNVA,DSAQKMK,QQYSRLPLM,-0.21 -0.24 -0.22 -0.58 -0.40 -0.11,-0.29,2/18 (3.07)
KLPMKELQMSENTNNVA,DSAQKMK,QQYSRLPLM,0.10 0.07 -0.20 -0.19 -0.18 -0.11,-0.08,2/18 (3.50)
RINIAGMTVDEHYSNVA,AQRLTSE,QQYFRLPLA,n.d. 2.49 2.05 1.73 2.05 1.99,2.06,1/18 (2.98)
MLTMFNNENQGWSNNIA,DTNNLNE,QQYSRLPFM,1.00 0.85 0.76 1.48 1.11 1.15,1.06,2/18 (2.63)
QLDHQLQYDDANKKAVA,EMTEVTT,QQYHRLPLV,1.89 1.55 2.16 1.78 1.41 1.88,1.78,1/18 (2.73)
KLQNFSQEWNKMWNNIA,DMTMKHT,QQYNRLPLE,1.28 1.11 0.86 1.26 1.02 1.45,1.16,2/18 (2.75)
KIDMSLNYESHALNSIA,EEVMHTA,QQYDKLPLF,n.d. n.d. n.d. n.d. n.d. n.d.,n.d.,0/18
HLQDWGIYGMENMDSIA,EREKLEM,QQYFRLPLS,0.59 0.29 0.36 0.28 0.38 0.83,0.46,3/18 (3.13)
KLFGGIPEQERDDYSIA,YGTLSEV,QQYDRLPLS,n.d. n.d. n.d. n.d. n.d. 3.29,3.29,0/18
ALSIQQQENTQIVNSIA,QTSLREH,QQYHHLPLC,0.17 -0.15 -0.20 -0.35 -0.58 0.29,-0.14,0/18
KLMDNPWVEDKYRNNIA,DIETKAI,QHYSRLPLL,1.14 0.82 0.68 0.70 1.08 1.24,0.94,1/18 (3.27)
KIDGQRSYQGGRERAIA,DATIRFR,QQYARLPLV,1.08 1.00 0.98 0.78 0.90 1.39,1.02,0/18
HLELEEMQMMKDHNSIA,DTEHKTR,QQYFRLPIS,0.82 0.70 0.25 0.25 0.31 0.58,0.48,2/18 (3.42)
KISMGIEMNTRQNHNMA,EASLKPS,QQYNRLPFF,-0.12 0.06 0.23 -0.34 -0.18 -0.07,-0.07,1/18 (1.53)
KIRVQQYSQSEMESNIA,GESVRHQ,QQYFHLPLS,1.37 1.68 1.86 1.48 0.75 1.31,1.41,0/18
KIELDLTRYNNSYSAIA,GETQKAQ,QQYSRLPLV,2.33 1.32 1.12 0.85 1.25 1.71,1.43,0/18
RVTNEFGKEMERKQSVA,ETDQRCM,QQYFRLPLI,0.20 0.36 -0.07 -0.02 -0.06 0.44,0.14,1/18 (2.86)
MIEEGNAGEIKNSSNIA,SQDQKED,QQYQRLPLI,1.37 1.62 1.50 1.89 2.13 2.47,1.83,1/18 (2.45)
KLDSHEQHGTAQNSAMA,NATVSTQ,QQYSRLPLS,0.52 0.18 0.63 0.46 0.50 0.42,0.45,0/18
KIQMNEITLMENINSIA,NSEVIVQ,QSYFRLPLS,1.50 0.92 1.61 1.92 1.53 2.37,1.64,0/18
HMNKFMSEIGGARNSIA,GADHLAQ,QHYHRLPLS,1.35 1.06 1.07 0.90 1.10 1.29,1.13,5/18 (3.65)
SFPSEMDQQQEQVNSIA,GEQHTAR,QQYGRLPLS,1.47 2.55 1.08 1.55 1.55 1.08,1.55,1/18 (2.38)
HIQDDAGGLREQFNSVA,STEERSY,QQYHRLPLS,-0.04 0.10 -0.21 -0.13 0.55 0.00,0.05,0/18
QLDQAYRVGALWTDSIA,HASMRVQ,QCYNRLPLS,n.d. 1.92 n.d. n.d. 3.72 3.61,3.08,1/18 (2.58)
QLDWYNTTATASASNVA,DVAQRAN,QQYMRLPLM,-0.07 -0.14 -0.29 -0.20 -0.10 -0.07,-0.14,1/18 (2.41)

Extract of 3 entries:

CDR-L1	CDR-L2	CDR-L3	replicates, log10 nM	mean, log10 nM	empty controls
HMNKFMSEIGGARNSIA	GADHLAQ	QHYHRLPLS	1.35 1.06 1.07 0.90 1.10 1.29	1.13	5/18 (3.65)
KLSWKSLYGETRWMAIA	NTKVRNA	QQYFRLPLQ	1.63 1.14 1.58 n.d. 1.60 0.99	1.39	1/18 (2.33)
QLDWYNTTATASASNVA	DVAQRAN	QQYMRLPLM	-0.07 -0.14 -0.29 -0.20 -0.10 -0.07	-0.14	1/18 (2.41)

Of ten entries with the parent sequence, four were seen in most replicates (averages 0.34 to 2.37), three in one and three in none, so single entries are noisy.
The range of this assay differs from that of the first round, and the authors advise against merging the two.
The authors' rule: three or more of the six replicates give a measured affinity, fewer mean a poor binder.
Nonspecific signal, from three strains lacking the peptide, appeared in 4% of pairings of all light chain designs, centred on 2.64 (5% of these signals below 1.59); values are not corrected for it. For each scFv, signals with the empty controls are counted beside the result, with their mean in brackets.